ClpP mod = qHTS Assay for Activators of ClpP; Potency, µM (series often up to 57.5 µM), inactives show at the highest dose activity change, negative = active; AID 651965, 2013; hit rate 1.9% among 340,000; purified B. subtilis ClpP, FRET peptide cleavage, 20 min; ATP-dependent Clp protease proteolytic subunit (Bacillus subtilis (strain 168)), P80244; active = well fitted falling curve with a large enough effect; inconclusive = small, poorly fitted or top-dose-only effect; inactive = no such curve, though single readings can be large or run the other way; note: potency is the fitted concentration of half-maximal effect; the source files actives as falling curves though it sought activators and does not explain the sign; nearly all actives have a fitted effect of over 65% in size
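ClpP 10 microg/mL final, pH 8 Tris/KCl buffer with BSA, glycerol, Tween-20; compound pinned in; FRET-FV substrate; RT 20 min; Ex320/Em430; ΔFRET vs ADEP 5.8 microM, DMSO, no enzyme.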
A549 tox-1 = A549 cytotoxicity, counter-screen for Nrf2 inhibitors. A549 ARE-Fluc cells, CellTiter-Fluor viability, 18-24 h. Potency, µM (titrated, usually from 46 µM), for inactives: at the highest dose activity change, negative = cytotoxicity, most hits filed as inhibitors. hit rate 0.16% among 390,000; note: potency is the fitted concentration of half-maximal effect; % is set by controls: 0 for no effect and ±100 for the full control effect
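Cytotoxicity counterscreen: CellTiter-Fluor fluorescence was measured in A549 ARE_Fluc cells after 18-24 h of compound exposure in a concentration series. The subsequent BugLite luminescent read reports ARE-luciferase activity.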
Nrf2 ARE act = activates Nrf2 signaling; AREc32 ARE-luciferase reporter (MCF7-derived line), luminescence, 24 h; Potency, µM (titrated, usually from 46.1 µM), inactives show at the highest dose activation, hits mostly activators; hit rate 0.31% among 410,000; note: potency is the fitted concentration of half-maximal effect; % of control where 0% means no effect; nearly all actives have a fitted effect of over 65% in size
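Each well held 1000 AREc32 cells, which were incubated with compound for 24 hr at 37 deg C after overnight attachment, and ARE reporter activity was quantified by firefly luciferase luminescence.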
miR-21 reporter = miR-21 reporter, rising signal. HeLa miR-21 FLuc reporter, luciferase, 48 h. Potency, µM (titrated, usually from 38.3 µM), without a hit: at the top dose reporter change, positive = more light. 340,000 tested, under 10 active. AID 2288; active = well fitted rising curve with a large enough effect; inconclusive = small, poorly fitted or top-dose-only effect; inactive = no such curve, though single readings can be large or run the other way;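 also: % of control where 0% means no effect; miR-21 action dims this reporter so a rising signal means less miR-21 action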
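HeLa miR-21-FLuc reporter line, endogenous miR-21; 2000 cells/well in DMEM/10% FBS; compound titration up to ~40uM final, 48 h, 37 degree Celsius; luciferase detection reagent, 15 min lysis, CCD luminescence.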
TCR act = activates T cell receptor signaling. primary human leukocytes, anti-CD3, IL-2 HTRF, 48 h. Potency, µM (highest dose often 9.22 µM), for inactives: at the top dose activation of IL-2 secretion, actives largely listed as activators. 330,000 tested, under 10 active. AID 504894; note: % of control where 0% means no effect
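IL-2 produced over 48 hr by a-CD3 bead-stimulated primary human leukocytes exposed to compounds was detected with a homogeneous time-resolved FRET immunoassay, 665nm acceptor signal after 320nm excitation.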
Nrf2 block = blocks Nrf2 signaling | A549 ARE-Fluc reporter, luciferase luminescence, 18-24 h | Potency, µM (doses to about 46 µM), for inactives: at the highest dose activity change, negative = inhibition, most hits filed as inhibitors | hit rate 2.1% among 360,000; note: potency is the fitted concentration of half-maximal effect; % is set by controls: 0 for no effect and ±100 for the full control effect; nearly all actives have a fitted effect of over 60% in size
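Nrf2 activity is the BugLite luminescence, read 15 min after reagent at room temperature, following CellTiter-Fluor cytotoxicity readout (30 min, 37C). Compound titrations were applied for 18-24 h to 5000 A549 ARE_Fluc cells/well in 5% FBS OPTI-MEM.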
FLuc counter 3 = blocks purified firefly luciferase in Nrf2 counterscreen; purified firefly luciferase, luminescence inhibition; Potency, µM (titrated, usually from 57.5 µM), for the others: at the top dose activity change, negative = inhibition, hits mostly inhibitors; AID 720522; shares compounds with Nrf2 block; hit rate 4% among 1,400; note: potency is the fitted concentration of half-maximal effect; % is set by controls: 0 for no effect and ±100 for the full control effect; nearly all actives have a fitted effect of over 65% in size
A549 tox-2 = counter-screen for Nrf2 inhibitors: cytotoxicity in A549 ARE cells; hit rate 2% among 1,400; A549 ARE-Fluc cells, cytotoxicity counterscreen; Potency, µM (highest dose often 46.1 µM), for inactives: at the highest dose activity change, negative = cytotoxicity, usual class: inhibitors; shares compounds with Nrf2 block;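 note: potency is the fitted concentration of half-maximal effect; cells exposed to compounds for 18 to 24 hours; % is set by controls: 0 for no effect and ±100 for the full control effect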
Nrf2 ARE inh = reduces Nrf2 ARE reporter signal in A549 cells; Potency, µM (top dose mostly 46.1 µM), without a hit: at the highest dose activity change, negative = inhibition, actives largely listed as inhibitors; A549 ARE-firefly luciferase reporter, luminescence; hit rate 74% among 1,400; shares compounds with Nrf2 block; note: potency is the fitted concentration of half-maximal effect; % is set by controls: 0 for no effect and ±100 for the full control effect; nearly all actives have a fitted effect of over 65% in size
The depositor's hits bear a star; ? = inconclusive; · = no result given; [ ] = dose if it differs, or a comment. Shown are actives, neighbours in structure and some others; about 3.7% of the full set was active somewhere. Unless noted, calls come from the whole dose curve; as a rule, active = well fitted curve in the direction sought with a large enough effect; inconclusive = small, poorly fitted or top-dose-only effect, or another doubt; inactive = no such curve, though single readings can be large; an effect the other way counts as inactive or inconclusive.

| compound | ClpP mod | A549 tox-1 | Nrf2 ARE act | miR-21 reporter | TCR act | Nrf2 block | FLuc counter 3 | A549 tox-2 | Nrf2 ARE inh |
| --- | --- | --- | --- | --- | --- | --- | --- | --- | --- |
| COc1ccc2c(c1)C(C)(CCN)C(=O)N2C (centres undefined) | · | -4% | 0% | · | 0% | -2% | · | · | · |
| COc1ccc(N2CCN(c3ncnc4c3[nH]c3ccccc34)CC2)cc1 | 0% | -10% | 4% | 17% | 0% | 5.8µM* | 1% | 0% | 2.9µM* |
| COc1cc2[nH]c3c(N4CCN(c5ccccn5)CC4)ncnc3c2cc1OC | ? | -7% | 4% | 19% | -5% | ? | · | · | · |
| COc1ccc(/C=C/c2ccc3ccccc3n2)cc1OC | 4% | · | · | · | · | · | · | · | · |
| Nc1ccc(/C=C/c2nccc3ccccc23)cc1 | 1% | · | · | · | · | · | 2.7µM* | -7% | ? |
| COc1cc(OC)c(/C=C/c2ccccn2)c(OC)c1 | 2% | · | · | · | · | · | 3% | -22% | 6.5µM* |
| COc1cc(OC)c(/C=C/c2ccc3ccccc3n2)c(OC)c1 | -1% | · | · | · | · | · | -24% | ? | 6.5µM* |
| COc1cc(OC)c(C=Cc2ccncn2)c(OC)c1 | -5% | · | 2% | · | · | · | · | · | · |
| COc1cc(OC)c(/C=C/c2nccc3ccccc23)c(OC)c1 | -7% | · | · | · | · | · | 7.6µM* | 23% | · |
| O=C(NCc1cccnc1)[C@@H]1CC=C[C@@H]2CCN(C3CCCCC3)C(=O)[C@@H]21 | 1% | · | · | · | · | · | · | · | · |
| Cc1cc(S(=O)(=O)Nc2ccc(-c3ccc(N4CCCCCC4)nn3)cc2)c(C)cc1Cl | -6% | -18% | 0% | 6% | · | · | · | · | · |
| O=[N+]([O-])c1ccccc1NC1CCN(Cc2ccccc2)CC1 | · | -19% | 0% | 6% | 4% | 1% | · | · | · |
| Cc1csc2ncnc(NC3CCN(Cc4ccccc4)CC3)c12 | · | -2% | 4% | 23% | 2% | 9.2µM* | -2% | -9% | 4.1µM* |
| CC(C)n1cc(/C=C/c2cc[n+](C)cc2)c2ccccc21 | · | ? | 0%[9.22 µM] | ? | 1% | 2.3µM* | 2% | ? | 6.5µM* |
| Cc1ccccc1/C=C/c1cc[n+](C)cc1 | -23% | -8% | 14% | 4% | 1% | 1.3µM* | 4% | -13% | 23µM* |
| C=CCn1cc(/C=C/c2cc[n+](C)cc2)c2ccccc21 | 0% | ? | 8% | ? | 8% | 2.3µM* | 1% | -29% | 1.8µM* |
| C=CCn1c(C)c(/C=C/c2cc[n+](C)cc2)c2ccccc21 | · | -21% | 8% | ? | 8% | ? | · | · | · |
| CCn1cc(/C=C/c2cc[n+](C)cc2)c2ccccc21 | 3% | -21% | 3% | ? | 4% | 1.8µM* | 0% | ? | 1.8µM* |
| CCOC(=O)c1c(C)[nH]c(C)c1S(=O)(=O)N(C)CC(=O)Nc1ccc(C)c(F)c1 | 0% | 11% | 5% | -1% | · | ? | · | · | · |
| Cc1ccc(NC(=O)c2ccc(Cl)c(S(=O)(=O)N3CCCC3)c2)nc1 | -2% | -2% | 3% | · | -10% | ? | · | · | · |
| CCCOC(=O)c1c(-c2ccccc2)nc(CC)c(C(=O)SCC)c1CCC | 1% | 0% | -1% | · | 7% | -12% | · | · | · |
| COCCCN(C(=O)c1ccc(N2CCCC2=O)cc1)c1c(N)n(Cc2ccccc2)c(=O)[nH]c1=O | -7% | -5% | 0% | · | -1% | 19% | · | · | · |
| CCCCN(C(=O)c1ccc(N2CCCC2=O)cc1)c1c(N)n(Cc2ccccc2)c(=O)[nH]c1=O | -3% | -9% | 0% | · | -2% | 5.8µM* | 0% | -10% | 3.7µM* |
| COc1ccc(-c2nnc(NC(=O)c3ccc(S(=O)(=O)N4CCc5ccccc5C4)cc3)o2)cc1 | 3% | -10% | 0% | -1% | -3% | 2.8µM* | 0% | -25% | 8.2µM* |
| COc1ccc(-c2csc(NC(=O)c3ccc(S(=O)(=O)N4CCc5ccccc5C4)cc3)n2)cc1 | -2% | -11% | 1% | 10% | 4%[46.1 µM] | 5.2µM* | 4% | 0% | -27% |
| O=C(Nc1nnc(C2CC2)o1)c1ccc(S(=O)(=O)N2CCc3ccccc3C2)cc1 | -1% | ? | 3% | -1% | -8% | ? | · | · | · |
| COC(=O)c1ccc(-c2csc(NC(=O)c3ccc(S(=O)(=O)N4CCc5ccccc5C4)cc3)n2)cc1 | -4% | 11% | -1% | -3% | 4%[46.1 µM] | 6% | · | · | · |
| COc1ccc(C2/C=C\CC(NS(=O)(=O)c3ccc(C)cc3)CC(=O)N2Cc2ccccc2F)cc1 (centres undefined) | -2% | -13% | 27% | · | -8%[46.1 µM] | ? | · | · | · |
| Cc1ccccc1-c1cccc([C@@H]2C[C@H]3[C@H](CON3C)CN2C(=O)CCc2ccccc2)c1 | 2% | -16% | 4% | · | 4% | ? | · | · | · |
| CN(Cc1ccccc1)C(=O)c1ccc(NC(=O)Cc2ccc(NC(=O)C3CCCN(C(=O)CCc4ccccc4)C3)cc2)cc1 (centres undefined) | -1% | -11% | 1% | · | -3% | 2.6µM* | -10% | -11% | 1.6µM* |
| CN(Cc1ccccc1)C(=O)c1ccc(NC(=O)Cc2ccc(NC(=O)C3CCCN(C(=O)C4CCC4)C3)cc2)cc1 (centres undefined) | -2% | -2% | 4% | · | 7% | ? | · | · | · |
| O=[N+]([O-])c1cc(-c2nc(-c3ccncc3)no2)ccc1NCc1ccccc1 | 1% | 1% | 2% | -5% | · | 9% | · | · | · |
| CC(C)N1C(=O)C(=O)N(CC(=O)N2c3ccccc3CC2C)C1=O (centres undefined) | 0% | · | -1% | · | · | · | · | · | · |
| O=C(CN1C(=O)c2ccccc2S1(=O)=O)c1cccc(Br)c1 | -2% | -1% | 1% | -1% | 3% | -40% | · | · | · |
| O=C(CN1C(=O)c2ccccc2S1(=O)=O)c1ccc2c(c1)OCCO2 | -2% | 12% | -4% | ? | 0% | 0.073µM* | -22% | 11% | 5.2µM* |
| O=C(CN1C(=O)c2ccccc2S1(=O)=O)c1ccc2c(c1)OCCCO2 | · | -2% | -2% | ? | -3% | 0.18µM* | 1% | -8% | 8.2µM* |
| O=C1N=C2N(CCN3CCCCC3)c3ccccc3N2/C1=C\c1ccc([N+](=O)[O-])s1 | 1% | -2% | 3% | · | -7% | -7% | · | · | · |

A different layout for three compounds above.
Molecule: Cc1ccccc1-c1cccc([C@@H]2C[C@H]3[C@H](CON3C)CN2C(=O)CCc2ccccc2)c1
  ClpP mod: 2%
  A549 tox-1: -16%
  Nrf2 ARE act: 4%
  miR-21 reporter: ·
  TCR act: 4%
  Nrf2 block: ?
  FLuc counter 3: ·
  A549 tox-2: ·
  Nrf2 ARE inh: ·

Molecule: O=C(CN1C(=O)c2ccccc2S1(=O)=O)c1ccc2c(c1)OCCCO2
  ClpP mod: ·
  A549 tox-1: -2%
  Nrf2 ARE act: -2%
  miR-21 reporter: ?
  TCR act: -3%
  Nrf2 block: 0.18µM*
  FLuc counter 3: 1%
  A549 tox-2: -8%
  Nrf2 ARE inh: 8.2µM*

Molecule: COc1ccc(C2/C=C\CC(NS(=O)(=O)c3ccc(C)cc3)CC(=O)N2Cc2ccccc2F)cc1 (centres undefined)
  ClpP mod: -2%
  A549 tox-1: -13%
  Nrf2 ARE act: 27%
  miR-21 reporter: ·
  TCR act: -8%[46.1 µM]
  Nrf2 block: ?
  FLuc counter 3: ·
  A549 tox-2: ·
  Nrf2 ARE inh: ·
